Experiments:
[1] = test system: IL-6; experiment: ELISA of IL-6 in hippocampus; assay type: in vivo, ICR mice; details: 24 h after i.v. (LPS 24 h); Ave.
Description: (§1) Tissues were sectioned at a […] thickness.

[2] = test system: TNF-α; details: 24 h after i.v. (LPS 24 h); Ave.
Procedure: as §1
Blood samples were collected for determination of red blood cell count, white blood cell count, haemoglobin, haematocrit, mean corpuscular volume, mean corpuscular haemoglobin, mean corpuscular haemoglobin concentration and platelet count (XFA6030, Perlong Medical Inc., China). Hippocampus was dissected out, rinsed in ice-cold PBS thoroughly, weighted and immediately frozen in liquid nitrogen. Tissues were cut into small pieces and homogenized in 1 mL ice-cold PBS with a glass homogeniser and sonicated with an ultrasonic cell disrupter to break the cell membranes. Homogenates were centrifuges for 5 min at 5,000 × g and supernatants were assayed immediately for quantitative determination of TNF-α, IL-6, IL-1β, Iba-1 and GFAP by corresponding ELISA kits, respectively in accordance with manufacturer’s instructions.

Molecule	IL-6 in hippocampus (Figure 6f) [1]	TNF-α in hippocampus (Figure 6e) [2]
CC[C@H](C)[C@H](NC(=O)[C@H](CC(N)=O)NC(=O)[C@H](Cc1c[nH]cn1)NC(=O)[C@@H](NC(=O)[C@@H]1CCCN1C(=O)[C@H](CCCNC(=N)N)NC(=O)[C@H](Cc1ccc(O)cc1)NC(=O)CNC(=O)[C@H](CS)NC(=O)c1ccc2c(c1)C(=O)OC21c2ccc(O)cc2Oc2cc(O)ccc21)C(C)C)C(=O)N[C@@H](CCCNC(=N)N)C(=O)NCC(=O)N[C@@H](Cc1c[nH]cn1)C(=O)N[C@@H](Cc1c[nH]c2ccccc12)C(=O)N[C@@H](C)C(=O)N1CCC[C@H]1C(=O)NCC(=O)O [FAM-CGY, 5-FAM-CGYRPVHNIRGHWAPG]	5.89	
lipopolysaccharide from Escherichia coli O55:B5 [LPS]		18.56

From article PMC6789111, “Crossing the blood-brain-barrier with nanoligand drug carriers self-assembled from a phage display peptide” (Nature Communications, 2019)
